Source: publication PMC8000448, “Inhibitory Effects of Schisandra Lignans on Cytochrome P450s and Uridine 5′-Diphospho-Glucuronosyl Transferases in Human Liver Microsomes” (Pharmaceutics, 2021)
Like-named read-outs stand apart in the source and are kept apart here.

The chains behind the UniProt entries cited, without tags or fusion partners.
UniProt P10632, whole entry: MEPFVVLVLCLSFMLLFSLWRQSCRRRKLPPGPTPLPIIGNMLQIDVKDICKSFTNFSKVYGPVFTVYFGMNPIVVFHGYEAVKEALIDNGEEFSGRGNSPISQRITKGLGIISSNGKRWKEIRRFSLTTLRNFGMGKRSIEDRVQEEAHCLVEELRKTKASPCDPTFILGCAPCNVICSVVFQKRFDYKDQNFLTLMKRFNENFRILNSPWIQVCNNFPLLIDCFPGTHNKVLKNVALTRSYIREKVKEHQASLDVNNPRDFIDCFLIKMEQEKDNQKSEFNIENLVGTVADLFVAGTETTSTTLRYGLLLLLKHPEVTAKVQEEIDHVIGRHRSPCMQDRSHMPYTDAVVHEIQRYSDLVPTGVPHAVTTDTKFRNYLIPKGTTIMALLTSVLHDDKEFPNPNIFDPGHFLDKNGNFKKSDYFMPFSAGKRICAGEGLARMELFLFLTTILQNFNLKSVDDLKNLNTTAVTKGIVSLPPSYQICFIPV
UniProt P08684, whole entry: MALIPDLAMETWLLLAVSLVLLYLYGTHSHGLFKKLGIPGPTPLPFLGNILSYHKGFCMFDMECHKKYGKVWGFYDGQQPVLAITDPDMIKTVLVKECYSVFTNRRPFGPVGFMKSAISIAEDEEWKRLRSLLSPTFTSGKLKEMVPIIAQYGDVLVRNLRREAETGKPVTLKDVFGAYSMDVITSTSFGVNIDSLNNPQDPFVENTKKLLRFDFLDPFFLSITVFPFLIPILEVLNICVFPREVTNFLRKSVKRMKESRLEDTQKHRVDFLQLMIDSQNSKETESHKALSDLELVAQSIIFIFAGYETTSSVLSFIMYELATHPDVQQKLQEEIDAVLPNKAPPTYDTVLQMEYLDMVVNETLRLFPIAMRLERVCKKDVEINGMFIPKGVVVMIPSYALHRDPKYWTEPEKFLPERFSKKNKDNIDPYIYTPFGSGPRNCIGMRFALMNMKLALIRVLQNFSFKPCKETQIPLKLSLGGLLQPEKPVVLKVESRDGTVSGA

Assays:
[1] = target: T1, rCYP2C8 (Homo sapiens, UniProt P10632); test: Inhibition of recombinant CYP2C8 (amodiaquine); type: in vitro ADME
T1 construct: purchased SPMED (Busan, Korea)
Method: (§1) The incubation mixture consisted of 0.1 M potassium phosphate buffer (pH 7.4), 20 pmol/mL rCYP2C8, rCYP2C19, or rCYP3A4 enzyme, respective probe substrate and gomisin A (0~50 μM) in a final volume of 100 μL. After a 5 min pre-incubation period at 37 °C, reactions were initiated by the addition of an NADPH generating system, and further incubated for 10 min at 37 °C. […] Other conditions remained as described above.

[2] = target: T2, rCYP3A4 (Homo sapiens, UniProt P08684); test: Inhibition of recombinant CYP3A4 (midazolam); type: in vitro ADME
T2 construct: purchased SPMED (Busan, Korea)
Method: as §1

[3] = test system: rP450s; test: Glutathione trapping of reactive metabolites in recombinant P450 isoforms; type: in vitro ADME, human; settings: rP450s, 50 μM, 2 mM NADPH, 5 mM glutathione; PRM method
Method: (§2) Gomisin A (50 μM) was incubated for 120 min at 37 °C with rP450s (20 pmol/mL) in 0.1 M phosphate buffer (pH 7.4) in the presence of 2 mM NADPH and 5 mM GSH. Control incubations in the absence of NADPH and GSH were conducted. Incubation samples were quenched with a half-fold volume of cold methanol. After centrifugation, supernatants were concentrated under vacuum and reconstituted with methanol (100 μL). Samples were analyzed by ultra-performance liquid chromatography-high resolution mass spectrometry (UPLC-HRMS).
(§3) To determine the GSH adducts produced by rP450s, a Vanquish UPLC system coupled with a QExactive Focus Orbitrap mass spectrometer (Thermo Fisher Scientific Inc., Waltham, MA, USA) was used. A Kinetex C18 column (100 × 2.1 mm, 2.6 μm) was used to separate the samples. The mobile phase was composed of water containing 0.1% formic acid (A) and acetonitrile containing 0.1% formic acid (B). The gradient elution was set as 10% B for 0–3 min, 10%→98% B for 3–10 min, 98%→10% B for 10–10.1 min, 10% B for 10.1–12 min. The flow rate was set to 0.2 mL/min. Data acquisition was carried out at m/z 100–800 with a resolution of 70,000 in the total ion scan mode, and MS/MS spectra were acquired at m/z 50–750 at a resolution of 17,500 in the daughter ion scan mode. […]

[4] = target: T3, rP450s (Homo sapiens, UniProt P10632); test: as above; type: in vitro ADME; settings: 50 μM, 120 min, NADPH and GSH; UPLC-HRMS
T3 construct: purchased SPMED (Busan, Korea)
Method: as §2, §3

[5] = recombinant enzyme, RI/TDI fold shift

Substance: gomisin A
- IC50 ([1]; recombinant enzyme 20 pmol/mL, average ± S.E. of triplicate, read-out: IC50 RI, rCYP2C8): 30.4 ± 8.1 µM
- IC50 ([1]; recombinant enzyme, 30 min NADPH pre-incubation, average ± S.E., listed as gomisin A, read-out: IC50 TDI, rCYP2C8): < 5 µM
- IC50 ([1]; recombinant enzyme, 30 min NADPH pre-incubation, average ± S.E., read-out: IC50 TDI, rCYP2C8): 3.32 ± 1.05 µM
- IC50 shift, rCYP2C8 [1, 5]: 9.2
- IC50 ([2]; recombinant enzyme 20 pmol/mL, average ± S.E. of triplicate, read-out: IC50 RI, rCYP3A4): 1.51 ± 0.2 µM
- IC50 ([2]; recombinant enzyme, 30 min NADPH pre-incubation, average ± S.E., listed as gomisin A, read-out: IC50 TDI, rCYP3A4): < 5 µM
- IC50 ([2]; recombinant enzyme, 30 min NADPH pre-incubation, average ± S.E., read-out: IC50 TDI, rCYP3A4): 0.51 ± 0.07 µM
- IC50 shift, rCYP3A4 [2, 5]: 3.0
- P450 isoforms involved in formation of carbene reactive metabolite (GSH adduct) [3]: CYP2C8, CYP2C19, and CYP3A4
- GSH conjugates formed in rCYP2C8 [4]: only one GSH conjugate
